For one substance, Kd results are on record in article PMC9515155.

pKd: −log10 of the molar value.

The target of this test is human IgE (Calbiochem) (human). Description: SPR. On the technique in general: SPR reads the build-up and loss of mass on a sensor chip optically.

For the substance omalizumab, the negative logarithm of the Kd (pKd) is 7.83.

In general, pKd refers to the Kd on a negative log10 scale, so that one unit is a factor of ten. A lower pKd goes with a high Kd.
